Measured values: ChEMBL document CHEMBL4311931, “Controlling cellular distribution of drugs with permeability modifying moieties” (Medchemcomm, 2019)

Sequences of proteins named here, by UniProt entry; tags and fusion partners are left off. A change or cut given only in a name is not applied to a line headed by its entry.
UniProt Q9Y5N1: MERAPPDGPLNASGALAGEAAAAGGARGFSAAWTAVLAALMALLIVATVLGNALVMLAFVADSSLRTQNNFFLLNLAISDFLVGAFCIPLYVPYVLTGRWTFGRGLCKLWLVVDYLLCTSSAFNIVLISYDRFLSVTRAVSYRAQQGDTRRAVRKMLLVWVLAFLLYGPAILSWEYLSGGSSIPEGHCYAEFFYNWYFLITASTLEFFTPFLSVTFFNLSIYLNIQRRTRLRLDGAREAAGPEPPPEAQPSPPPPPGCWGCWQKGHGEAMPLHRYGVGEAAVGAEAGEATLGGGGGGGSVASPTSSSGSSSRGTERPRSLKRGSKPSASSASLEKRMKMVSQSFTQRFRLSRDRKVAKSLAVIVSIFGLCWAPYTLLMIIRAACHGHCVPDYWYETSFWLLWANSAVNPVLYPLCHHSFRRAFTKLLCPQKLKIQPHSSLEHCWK

Columns and labels:
Histamine H3 receptor [1] = biological target: T1, Histamine H3 receptor (Homo sapiens, UniProt Q9Y5N1); experiment: Antagonist activity at human H3 receptor expressed in CHOK1 cells incubated for 10 mins by HTRF assay relative to parent compound; assay type: cell-based
Histamine H3 receptor [2] = biological target: T1, Histamine H3 receptor; experiment: Displacement of [3H]Nalpha-methylhistamine from recombinant human histamine H3 receptor after 60 mins by scintillation counting method relative to parent compound

fold change (FC) (Histamine H3 receptor [1])	fold change (FC) (Histamine H3 receptor [2])	SMILES
0.02	1.6	Cc1nn(CCOCCOCCN)cc1-c1ccc2cc(CCN3CCC[C@H]3C)ccc2n1
0.95	33	Cc1nn(CCOCCOCCNC(=O)OC(C)(C)C)cc1-c1ccc2cc(CCN3CCC[C@H]3C)ccc2n1
0.3	4.2	Cc1nn(CCOCCOCCNC(=O)CCCCCC2(C)C(/C=C/C=C/C=C3/N(CCCS(=O)(=O)O)c4ccc(S(=O)(=O)O)cc4C3(C)C)=[N+](CCCS(=O)(=O)[O-])c3ccc(S(=O)(=O)O)cc32)cc1-c1ccc2cc(CCN3CCC[C@H]3C)ccc2n1 (stereo not given in full)
1	12.4	Cc1nn(CCOCCOCCNC(=O)CS(=O)(=O)O)cc1-c1ccc2cc(CCN3CCC[C@H]3C)ccc2n1
3.5	56	Cc1nn(CCOCCOCCNC(=O)C2C(C(=O)O)C(C(=O)O)C2C(=O)O)cc1-c1ccc2cc(CCN3CCC[C@H]3C)ccc2n1 (stereo not given in full)
